Assay results published in publication PMC7810150 (Journal of medicinal chemistry, 2020).
Several values for one entry are separate records, joined by “and”; a condition that tells them apart may be missing. Equal entries are not always repeated. Where two headings read alike, the source gives them in different places.

Columns and labels:
[1] = In vivo tolerance and dose-limiting toxicities; design: species or system mice; conditions: for maximum tolerated (single) dose: single intravenous bolus dose, mice
[2] = mice
[3] = cited from earlier work
[4] = IV, 1 mg/kg; estimated from literature data; cited from earlier work

In the case of “(E)-3-(2′-{2-[(Methyl l-Phenylalanyl-l-tryptophanate)amino]-2-oxoethoxy}imino) MTM [MTMox32E]”, the “tolerance of q3dx8 schedule” value ([1]; 25 mg/kg, eight doses at 3-day intervals) is reported as “no weight loss or petechia noted”, the “tolerance of protracted dosing schedules” value ([1]; qMWFx2 14 mg/kg, q4dx6 17 mg/kg, q7dx3 25 mg/kg) is reported as “no weight loss, hematologic toxicity, or hepatic toxicity” and the “alanine aminotransferase (ALT)” value ([1]; single dose, doses of 35 mg/kg and greater, normalized by day 6) is reported as “sharp increase on day 2”. For the same substance, the “maximum tolerated (single) dose” value [1] was “approximately 25 mg/kg”, the “white blood cells, lymphocytes and platelets” value ([1]; within 2 days after treatment at doses of 35 mg/kg and greater) was “decreased significantly” and the “increase in plasma (systemic) exposure relative to MTM” value [2] was 11 fold and > 10 fold. The “clearance (CL)” value ([2]; IV, 5 mg/kg) was 90 mL/h/kg, the “dose-normalized systemic exposure (AUC/D)” value ([2]; IV, 5 mg/kg) was 13596 kg·ng·h/mL/mg and the “volume of distribution (Vd)” value ([2]; IV, 5 mg/kg) was 44 mL/kg.

In the case of mithramycin A [MTM], the pKa [3] is listed as ~ 5, the “maximum tolerated (single) dose” value [1] is listed as “approximately 1 mg/kg” and the “clearance (CL)” value [4] is listed as 1481 mL/h/kg. For the same substance, the “dose-normalized systemic exposure (AUC/D)” value [4] was 1202 kg·ng·h/mL/mg and the “volume of distribution (Vd)” value [4] was 1534 mL/kg.
